Laboratory results as given in patent US20070154464A1, “Methods for screening for agents capable of modulating t lymphocyte function in response to a herpes simplex virus-infected cell” (priority 2003, published 2007).

Tested on: CD8+ CTL clone SKH-13
Format: cell-based, human
Details: 20 units/ml

IL-2: human recombinant interleukin (IL)-2 (Chiron)
Lytic ability of CTL added to mock-infected fibroblasts (up to 48 h): maintained the lytic ability
Recovery of killing function of CTL added to HSV-infected fibroblasts (E:T 3): did not recover killing function
